Literature values as cited in patent publication US7217431B2, “Controlled agglomeration” (LifeCycle Pharma A/S, priority 2001, dated 2007).

Details: Table 1 Poorly-Soluble Drug Candidates

## Cc1nc2n(c(=O)c1CCN1CCC(c3noc4cc(F)ccc34)CC1)CCCC2 [Risperidone]
  Solubility In Water: Insoluble
